Test results taken from patent US20190094246A1, “DETECTION OF NEURODEGENERATIVE DISEASES” (AMONETA DIAGNOSTICS SAS, priority 2016, published 2019).

Tests used:
[1] = test system: RBCs from transgenic APP/PS1 mice versus age-matched Wild-Type mice; test: RBC staining in Alzheimer animal model, transgenic versus wild type; format: cell-based
Procedure: In studies comparing intensities of the staining of RBCs from Alzheimer patients and healthy controls or subjects with anon-Alzheimer disease or from animal models, predictive modeling with logistic regression model and classification is performed. ROC (Receiver Operating Characteristic) Curve(s) enabling to evaluate the assay accuracy (specificity and sensitivity of the assay). To generate a ROC analysis, a logistic model is used to give a score to each patient. At each threshold between the minimum and the maximum of the population score, a matrix based on the prediction of the model compared to the real data is constructed. Based on these matrices, the accuracy, the sensitivity, the specificity, the negative and the positive predictive value are calculated. With the sensitivity and the specificity, the ROC curve is established and the AUROC (Area Under the Receiver Operating Characteristic) is calculated for the tested compound of the present invention targeting respective biomarker: PKC or Aβ (Aβ1-42 or shorter fragments). The same procedure is applied for the combination of two or more compounds tested. In this case, the class of the patients is indicated with the logical operators (AND, OR). Individual cut-off value from logistic regression model is calculated for each biomarker stained with a compound of the present invention. […]

[2] = test system: red blood cells (RBCs) from human subjects; test: Dose-dependent staining of RBCs, flow cytometry (MEDFI); format: cell-based; conditions: 0.03, 0.1, 0.3, 1 and 3 μM; RBCs 200 000 cells/mL of 3 human subjects; channel FL1 (Ex. 1), FL3 (Ex. 9)
Procedure: The blood from an animal or a human subject is sampled in specific 5 mL tube, such as lithium-heparin tube. The blood is manually mixed by inversion before use.
Red blood cells (RBCs) are obtained from whole blood after centrifugation at 200 g for 10 minutes at room temperature. RBCs pellet down and segregate from white blood cells, platelets and plasma. 5 μL of RBCs are pipetted, diluted 1000 times in 5 mL of Flow cytometry buffer (FACS buffer: 150 mM of NaCl; 1 mM of D-Glucose; 5 mM of Na2HPO4; 0.5 mM CaCl2) and either numbered by manual counting on disposable Malassez-like counting cell (X100 Cellule Fast Read, Fisher Scientific, Ref #11762712) with a microscope or counted with Flow count Fluorospheres (Beckman, Ref 7547053) so as to obtain a cell concentration of stock solution to be used in the test. […]
From these different concentration stocks, the same quantity (4) of compounds at desired concentration to be tested is added to erythrocytes in each FACS vial to obtain the same % of DMSO (0.5% of DMSO) at the end. […] In all experiments, a control is performed with the final amount of compound solvent (DMSO alone, without test compound), in order to obtain the auto-fluorescence of the RBCs. […]

Lys-[N-2-(3-CO—CH2—S-2,5-dioxo-pyrrolidinyl)-ethylamido-Bodipy]-Beta-Amyloid (1-42) [Ex. 1]
discrimination between transgenic and wild type mice by RBC staining ([1]; 1 μM, 5 transgenic mice and 6 age-matched wild type mice): excellent accuracy | discrimination between the transgenic mouse group and control mouse group by RBC staining ([1]; concentration not given): good accuracy | staining of RBCs (index MEDFI) [2]: dose-dependent staining
